US10238710B2, “Peptide having anti-inflammatory, osteogenic and hair growth promoting activities, and use of same” (CAREGEN CO., LTD., priority 2014, dated 2019)

What was measured:
osteoprotegerin (OPG) = experiment: RT-PCR of osteogenic differentiation marker OPG; format: cell-based, mouse; details: MC3T3-E1, three days
bone sialoprotein (BSP) = experiment: RT-PCR of osteogenic differentiation marker BSP; format: cell-based, mouse; details: MC3T3-E1, three days
[1] = tested on: alkaline phosphatase (ALP); details: MC3T3-E1, three days, RT-PCR

BMP2: positive control: 100 ng/ml BMP2 (Cell signaling) [reference compound]
increased: expression of osteoprotegerin (OPG) (osteoprotegerin (OPG)) | expression of bone sialoprotein (BSP) (bone sialoprotein (BSP)) | expression of alkaline phosphatase (ALP) [1]
